High-throughput results: PubChem, National Center for Advancing Translational Sciences (NCATS)
A549 tox: counter-screen for Nrf2 inhibitors: cytotoxicity in A549 cells. A549 ARE-Fluc cells, CellTiter-Fluor viability, 18-24 h. Potency, µM (titrated, usually from 46 µM), inactives show at the top dose activity change, negative = cytotoxicity, actives largely listed as inhibitors. hit rate 0.16% among 390,000. AID 504648; also: potency is read from the fitted curve at half-maximal effect; % is scaled to controls: 0 for no effect and ±100 for the full control effect
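A549 ARE_Fluc cells in 5% FBS OPTI-MEM were exposed to compounds in concentration-response for 18-24 h at 37 deg C. Viability was read by CellTiter-Fluor fluorescence (Ex 405/Em 525) after 30 min, before the luciferase read.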
Nrf2 block: inhibitors of Nrf2 signaling | hit rate 2.1% among 360,000 | Potency, µM (doses to about 46 µM), inactives show at the top dose activity change, negative = inhibition, actives largely listed as inhibitors | AID 504444 | A549 ARE-Fluc reporter, luciferase luminescence, 18-24 h; also: potency is read from the fitted curve at half-maximal effect; % is scaled to controls: 0 for no effect and ±100 for the full control effect; nearly all actives have a fitted effect of over 60% in size
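A549 ARE_Fluc cells (5000/well, 5% FBS OPTI-MEM) pre-incubated 2 h, then treated with compounds 18-24 h at 37C/5% CO2 in concentration-response. CellTiter-Fluor viability read first; BugLite luciferase luminescence after 15 min at room temperature gives Nrf2 activity.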
p53 reactivator: mutant p53 re-activation in reporter cells; H1299 p53-A138V BP100-luciferase reporter, luminescence, 24 h; Potency, µM (highest dose often 92.2 µM), inactives show top-dose activity change, positive = activation, most hits filed as activators; hit rate 0.063% among 320,000; AID 504706; also: potency is read from the fitted curve at half-maximal effect; % of control where 0% means no effect; nearly all actives have a fitted effect of over 45% in size
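p53-null H1299 cells stably carrying temperature-sensitive p53-A138V and a BP100-luciferase reporter were pinned with compounds (4-point, 1:5 series) and held 24 hrs at 37 deg C. Luminescence was read 10 min after detection reagent.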
Nrf2 activator: Nrf2 pathway activation. AREc32 ARE-luciferase reporter (MCF7-derived line), luminescence, 24 h. Potency, µM (series often up to 46.1 µM), for inactives: top-dose activation, most hits filed as activators. hit rate 0.31% among 410,000. AID 624171; also: potency is read from the fitted curve at half-maximal effect; % of control where 0% means no effect; nearly all actives have a fitted effect of over 65% in size
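Reporter line AREc32 (ARE-Fluc), seeded overnight in OPTI-MEM with 5% FBS; compound pin-transferred, 24 hr at 37 deg C, 5% CO2; luminescent read-out.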
ClpP mod: qHTS Assay for Activators of ClpP; ATP-dependent Clp protease proteolytic subunit (Bacillus subtilis (strain 168)), P80244; purified B. subtilis ClpP, FRET peptide cleavage, 20 min; Potency, µM (top dose mostly 57.5 µM), for the others: at the top dose activity change, negative = active; hit rate 1.9% among 340,000; AID 651965, 2013; active = well fitted falling curve with a large enough effect; inconclusive = small, poorly fitted or top-dose-only effect; inactive = no such curve, though single readings can be large or run the other way; also: potency is read from the fitted curve at half-maximal effect; the source files actives as falling curves though it sought activators and does not explain the sign; nearly all actives have a fitted effect of over 65% in size
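Buffer: 100 mM Tris/HCl pH8, 100 mM KCl, 0.05% low protease BSA, 2.5% glycerol, 0.01% Tween-20. ClpP 10 microg/mL final; 20 min RT; delta FRET normalized to ADEP and DMSO controls.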
miR-21 reporter: raises the signal of a miR-21 reporter; AID 2288; 340,000 tested, under 10 active; Potency, µM (doses to about 38.3 µM), inactives show at the top dose reporter change, positive = more light; HeLa miR-21 FLuc reporter, luciferase, 48 h; active = well fitted rising curve with a large enough effect; inconclusive = small, poorly fitted or top-dose-only effect; inactive = no such curve, though single readings can be large or run the other way;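 note: % of control where 0% means no effect; miR-21 action dims this reporter so a rising signal means less miR-21 action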
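HeLa miR-21-FLuc reporter line, endogenous miR-21; 2000 cells/well in DMEM/10% FBS; compound titration up to ~40uM final, 48 h, 37 degree Celsius; luciferase detection reagent, 15 min lysis, CCD luminescence.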
* = called active by the depositor; u = inconclusive; x = not tested or not shown. This is a sample that favours compounds with a hit; in the whole collection about 3.7% have one here. Unless noted, calls follow the shape of the dose curve; as a rule, active = well fitted curve in the direction sought with a large enough effect; inconclusive = small, poorly fitted or top-dose-only effect, or another doubt; inactive = no such curve, though single readings can be large; an effect the other way counts as inactive or inconclusive.

SMILES	A549 tox	Nrf2 block	p53 reactivator	Nrf2 activator	ClpP mod	miR-21 reporter
Cc1ccc(C2NC(=O)c3c(sc4c3CCN(C)C4)N2)s1 (stereo not given)	0%	u	32%	0%	25µM*	-23%
CN1CCc2c(sc3c2C(=O)NC(c2ccccn2)N3)C1 (stereo not given)	x	u	u	3%	16µM*	-4%
CN1CCc2c(sc3c2C(=O)NC(c2ccccc2)N3)C1 (stereo not given)	-1%	u	u	10%	1%	-23%
Cc1ccc(C2NC(=O)c3c(sc4c3CCN(C)C4)N2)o1 (stereo not given)	0%	11%	5%	4%	28µM*	0%
COc1cccc(CN2C(=O)N(c3ccc(C)cc3)C(=O)C2CC(=O)Nc2cc(OC)cc(OC)c2)c1 (stereo not given)	2%	-29%	x	3%	-3%	28%
CCCn1c2ccccc2c2cnn(CC(=O)NCC3CCN(Cc4ccc(F)cc4)CC3)c(=O)c21	-30%	u	x	0%	u	-10%
O=C(COCc1cc(-c2cccs2)on1)NCc1ccc(Cl)cc1	-2%	-10%	x	13%	-5%	-2%
COc1ccccc1NC(=O)C(=O)N/N=C/c1cccs1	8%	u	29%	11µM*	-7%	-53%
Cc1cc(C)n(-c2ccc(C(=O)OCc3nnc(-c4ccccc4)o3)cc2)n1	-10%	6%	4%	3%	35µM*	-21%
Cc1nn(-c2ccccc2)c2sc(C(=O)OCc3nnc(-c4ccccc4)o3)cc12	-10%	11%	4%	3%	14µM*	-9%
Cc1nn(-c2ccccc2)c2sc(C(=O)O)cc12	4%	-25%	2%	0%	-8%	-10%
COC(=O)c1cc2c(C)nn(-c3ccccc3)c2s1	9%	x	-1%	u	32µM*	-24%
O=S(=O)(c1ccsc1)N1CCN(c2nc(-c3cccs3)nc3ccccc23)CC1	0%	4%	x	x	x	x
COc1ccccc1C(=O)NCc1nnnn1-c1ccc(C)c(C)c1	-19%	x	x	0%	-6%	3%
CC1CCCN(C(=O)Cn2c(=O)n(CC3CCC(C(=O)NC(C)C)CC3)c(=O)c3sccc32)C1 (stereo not given)	-4%	u	x	3%	1%	-7%
CC12CCC(O)CC1=CCC1C2CCC2(C)C(c3ccn[nH]3)CCC12 (stereo not given)	-8%	21µM*	x	3%	x	x
CC(C)C(=O)N[C@H]1CCC2C3CC=C4C[C@@H](O)CC[C@]4(C)C3CC[C@@]21C (stereo not given in full)	3%	-8%	1%	0%	x	x
Cc1cccc2cc(C#N)c(NCCNS(=O)(=O)c3ccc4c(c3)OCCO4)nc12	-23%	u	5%	4%	32µM*	-15%
Cc1cccc2cc(C#N)c(NCCNC(=O)NC3CCCCC3)nc12	-10%	9.2µM*	3%	0%	u	-7%
CCC(=O)NCCCNc1nc2c(C)cccc2cc1C#N	2%	-13%	-3%	2%	x	-5%
Cc1ccc2cc(C#N)c(NCCNC(=O)C3CCC3)nc2c1C	-1%	u	-5%	3%	16µM*	-7%
Cc1cccc(NC(=O)C2CCCN(S(=O)(=O)c3c(C)[nH]c(=O)[nH]c3=O)C2)c1C (stereo not given)	17%	0%	x	0%	0%	3%
Cc1ccccc1CNC(=O)CCS(=O)(=O)c1cc2c3c(c1)CCN3C(=O)CC2	20%	u	x	0%	2%	1%
CCc1cc(-c2nnn(CCC3COCCO3)c2CC)cc(CC)c1-c1cn(CCc2c[nH]c3ccccc23)nn1 (stereo not given)	x	x	x	4%	1%	x
Cc1ccc(/C=C/C(=O)N2CCc3ccccc32)o1	0%	u	u	11µM*	-2%	-63%
SMILES	A549 tox	Nrf2 block	p53 reactivator	Nrf2 activator	ClpP mod	miR-21 reporter
O=C(/C=C/c1ccco1)N1CCc2ccccc21	0%	u	0%	u	x	-30%
COCCN1C2=C(C(=O)CC(C)(C)C2)C(c2ccc(OC)c(OC)c2)C2=C1CC(C)(C)CC2=O	-15%	-12%	x	0%	10µM*	1%
Cc1ccc(S(=O)(=O)c2nnn3c2nc(Nc2ccc(C(C)C)cc2)c2sccc23)cc1C	0%	21µM*	x	-1%	0%	-1%
Cc1ccc(C)c(S(=O)(=O)c2nnn3c2nc(NC2CCCCC2)c2sccc23)c1	u	u	x	-1%	35µM*	23%
CCOc1ccc(Nc2nc3c(S(=O)(=O)c4ccc(C(C)C)cc4)nnn3c3ccsc23)cc1	7%	17%	x	0%	-2%	4%
Cc1ccc(S(=O)(=O)c2nnn3c2nc(NC2CCCCCC2)c2sccc23)cc1C	-23%	u	x	0%	-19%	-31%
CC(C)c1ccc(S(=O)(=O)c2nnn3c2nc(N2CCCCC2)c2sccc23)cc1	0%	u	x	-1%	25µM*	2%
Cc1cccc(N/C=C/c2onc(C)c2[N+](=O)[O-])c1	-5%	u	x	u	-2%	-56%
Cc1cccc(/C=C/c2onc(C)c2[N+](=O)[O-])n1	18µM*	15µM*	x	21%	x	x
COc1ccc(CCNC(=O)CSc2ncc(C(=O)Nc3ccccc3)c(=O)n2C)cc1	13%	u	2%	3%	0%	x
COc1ccccc1NC(=O)c1cnc(SCC(=O)NCCc2ccccc2)n(C)c1=O	-4%	7%	6%	4.5µM*	-3%	x
CCN(CC)CCCNC(=O)c1cc2c(-c3cccc(OC)c3)nn(C)c2s1	-18%	-6%	-1%	12%	5%	-27%
CCN1CCCC1CNC(=O)c1cc2c(-c3cccc(OC)c3)nn(C)c2s1 (stereo not given)	u	19%	0%	6%	32µM*	0%
COc1cccc(-c2nn(C)c3sc(C(=O)NCc4ccco4)cc23)c1	-18%	u	-6%	u	22µM*	13%
CCN1CCCC1CNC(=O)c1cc2c(-c3ccc(Cl)cc3)nn(C)c2s1 (stereo not given)	-16%	u	-6%	-5%	4%	13%
COC(=O)c1ccc(NC(=O)c2ccccc2OCC(=O)Nc2ccc(Br)cc2)cc1	x	x	x	x	4%	x
O=c1oc2ccccc2cc1-c1csc(Cc2nc(-c3ccc(Cl)cc3)cs2)n1	-1%	21µM*	7%	0%	3%	0%

A run of entries from further up, for reference:
SMILES	A549 tox	Nrf2 block	p53 reactivator	Nrf2 activator	ClpP mod	miR-21 reporter
O=C(/C=C/c1ccco1)N1CCc2ccccc21	0%	u	0%	u	x	-30%
COCCN1C2=C(C(=O)CC(C)(C)C2)C(c2ccc(OC)c(OC)c2)C2=C1CC(C)(C)CC2=O	-15%	-12%	x	0%	10µM*	1%

Some of these compounds in order of molecular weight, ascending.
SMILES	A549 tox	Nrf2 block	p53 reactivator	Nrf2 activator	ClpP mod	miR-21 reporter
CN1CCc2c(sc3c2C(=O)NC(c2ccccn2)N3)C1 (stereo not given)	x	u	u	3%	16µM*	-4%
Cc1ccc(C2NC(=O)c3c(sc4c3CCN(C)C4)N2)o1 (stereo not given)	0%	11%	5%	4%	28µM*	0%
Cc1cccc2cc(C#N)c(NCCNC(=O)NC3CCCCC3)nc12	-10%	9.2µM*	3%	0%	u	-7%
CC(C)C(=O)N[C@H]1CCC2C3CC=C4C[C@@H](O)CC[C@]4(C)C3CC[C@@]21C (stereo not given in full)	3%	-8%	1%	0%	x	x
